The text below walks through data of article PMC9937529, “Mechanism of activation and biased signaling in complement receptor C5aR1” (Cell Research, 2023).

Where a chain is given by its changes, count along the chain named.

One may read the EC50 as the concentration giving half of the maximal effect.

Type in all cases: cell-based
For one assay, the target named is T1, C5aR1-WT (Homo sapiens, UniProt P21730).
T1 construct: expressed in transfected cells; host or cells: HEK293
T1 sequence (P21730 1-350): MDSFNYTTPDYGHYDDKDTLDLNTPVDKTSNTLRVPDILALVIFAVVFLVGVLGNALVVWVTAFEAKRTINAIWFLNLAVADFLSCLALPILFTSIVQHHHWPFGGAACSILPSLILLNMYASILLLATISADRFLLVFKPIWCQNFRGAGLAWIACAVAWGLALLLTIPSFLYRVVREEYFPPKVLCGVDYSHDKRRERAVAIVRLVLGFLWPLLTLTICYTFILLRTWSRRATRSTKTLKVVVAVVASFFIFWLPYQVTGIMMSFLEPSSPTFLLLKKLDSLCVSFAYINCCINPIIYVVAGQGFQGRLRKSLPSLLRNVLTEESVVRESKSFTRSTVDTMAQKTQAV
Kind of assay: C5aR1-Gi-mediated cAMP inhibition assay (GloSensor). Conditions: HEK293, 2.5 μM forskolin, ligand 30 min RT, mean±SEM, n=6. On the procedure:
(§1) The cDNA sequences of wild-type C5aR1 were cloned into the expression vector pcDNA3.1(+) with a HA signal sequence followed by a Flag tag at the N-terminus. Mutants used in our study were generated by using the Q5 site-Directed Mutagenesis kit (NEB). All the constructs were verified by sanger sequencing. The constructs were transiently expressed in HEK293 cells using PEI transfection reagent (YEASEN, 40816ES02) according to the manufacturer’s instruction. Cells were harvested 48 h post transfection. Cell surface expression levels of receptors were measured by enzyme-linked immunosorbent assay (ELISA).
To measure cAMP inhibition effects on the forskolin-induced cAMP accumulation of C5aR1, the GloSensor cAMP assay (Promega) was performed as described in the previous study.[59] Briefly, Flag-tagged wild-type human C5aR1 was co-expressed with GloSensor plasmid in HEK293 cells in 6-well culture plates. After at least 24 h, transfected cells were harvested and suspended in assay buffer Hank’s Balanced Salt Solution (HBSS) containing 10 mM HEPES, pH 7.4, with an additional 3% v/v dilution of the D-Luciferin-Potassium Salt (YEASEN, 40902ES01). […] Finally, the luminescence signals were counted on the Synergy H1 microplate reader (BioTek). […]

The next assay deals with T2, C5aR1 D2827.35A (Homo sapiens, UniProt P21730, D282A).
T2 construct: expressed in transfected cells; host or cells: HEK293
T2 sequence (P21730 1-350 D282A): T1 sequence (P21730 1-350) with D282A
Kind of assay: cAMP inhibition assay (GloSensor). As to conditions: HEK293, 2.5 μM forskolin, mean±SEM, n=3. On the procedure: as §1
(§2) To measure cAMP inhibition effects on the forskolin-induced cAMP accumulation of C5aR1, the GloSensor cAMP assay (Promega) was performed as described in the previous study.[59] Briefly, Flag-tagged wild-type human C5aR1 was co-expressed with GloSensor plasmid in HEK293 cells in 6-well culture plates. After at least 24 h, transfected cells were harvested and suspended in assay buffer Hank’s Balanced Salt Solution (HBSS) containing 10 mM HEPES, pH 7.4, with an additional 3% v/v dilution of the D-Luciferin-Potassium Salt (YEASEN, 40902ES01). The ligands used in this study were dissolved in H2O to a stock concentration of 10 mM and followed by serial dilution using HBSS solution immediately before ligand stimulation. After incubation at 37 °C for 2 h, cells were stimulated by ligand (diluted in assay buffer containing 2.5 μM forskolin) for 30 min at room temperature. […] Finally, the luminescence signals were counted on the Synergy H1 microplate reader (BioTek). Each measurement was repeated in at least three independent experiments, each in triplicate. Data were processed using the nonlinear regression (curve fit) dose-response function in GraphPad Prism 7 to calculate the values of Emax and EC50.

The target of a further assay is T3, C5aR1 S1714.60A (Homo sapiens, UniProt P21730, S171A).
T3 construct: expressed in transfected cells; host or cells: HEK293
T3 sequence (P21730 1-350 S171A): T1 sequence (P21730 1-350) with S171A
Kind of assay: cAMP inhibition assay (GloSensor). As to conditions: HEK293, 2.5 μM forskolin, mean±SEM, n=3. How it is done:
as §1, §2

For another assay, the target named is T4, C5aR1 Y2586.51A (Homo sapiens, UniProt P21730, Y258A).
T4 construct: expressed in transfected cells; host or cells: HEK293
T4 sequence (P21730 1-350 Y258A): T1 sequence (P21730 1-350) with Y258A
As to the kind of experiment: cAMP inhibition assay (GloSensor). Conditions: HEK293, 2.5 μM forskolin, mean±SEM, n=3. How it is done:
as §1, §2

A further assay addresses T5, C5aR1 E1995.35A (Homo sapiens, UniProt P21730, E199A).
T5 construct: expressed in transfected cells; host or cells: HEK293
T5 sequence (P21730 1-350 E199A): T1 sequence (P21730 1-350) with E199A
As to the kind of experiment: cAMP inhibition assay (GloSensor). Conditions: HEK293, 2.5 μM forskolin, mean±SEM, n=3. How it is done:
as §1, §2

B1: C5a: 74-amino-acid complement fragment, endogenous agonist; recombinant human C5a, free cysteine replaced by arginine (protein)
chain: TLQKKIEEIAAKYKHSVVKKCCYDGARVNNDETCEQRAARISLGPRCIKAFTECCVVASQLRANISHKDMQLGR
modifications: three intramolecular disulfides; non-glycosylated (E. coli); Trx-His6 tag removed with TEV
With B1, the EC50 with C5aR1-WT amounted to 1.87 ± 0.43 nM; in the assay with C5aR1 D2827.35A, 12.9 ± 2.54 nM; with C5aR1 S1714.60A it was 4.03 ± 1.33 nM; in the assay with C5aR1 Y2586.51A it was 7.86 ± 1.53 nM; in the assay with C5aR1 E1995.35A, 3.24 ± 0.71 nM.
